{
  "source": "patent US12486270B2",
  "about": "“Receptor tyrosine kinase inhibitors for treatment of protein kinase modulation-responsive disease or disorder” (THE UNITED STATES OF AMERICA, as represented by the …, priority 2019, dated 2025)",
  "key": {"[1]": {"tested_on": "HT-29 tumor", "test": "HT-29 subcutaneous tumor model in nu/nu mice", "type": "in vivo", "details": "15 mg/kg daily i.p."}, "[2]": {"tested_on": "HT-29 cells", "test": "Cell cycle analysis by flow cytometry in HT-29 cells", "type": "cell-based, human", "details": "1 μM, 72 hrs"}, "[3]": {"tested_on": "LC3B", "test": "LC3B accumulation in SW620 cells", "type": "cell-based, human", "details": "1 μM, 72 hours", "procedure": "Western blotting. Protein lysates were separated by SDS-PAGE and then transferred to a nitrocellulose membrane. After blocking, membranes were incubated overnight with antibodies to LC3 (rabbit Monoclonal antibody, Cell Signaling). After washing with TBS-T (TBS with 0.05 Tween-20), membranes were incubated with the HRP (Horseradish peroxidase)-linked secondary antibody (IgG donkey anti-rabbit IgG (NA934) (GE LifeSciences, Marlborough, MA). Blots were developed using ECL prime (GE LifeSciences, RPN2232) and digitally captured on an LAS4000 (GE LifeSciences). After stripping, the membrane was re-probed with a mouse monoclonal antibody to GAPDH (Santa Cruz) followed by a secondary IgG sheep anti-mouse IgG (NA931). Western blot bands were quantified using Fiji (Schindelin et al., 2012)."}, "[4]": {"tested_on": "LC3", "test": "LC3 autophagic puncta imaging in HT-29 cells transduced with fluorescent LC3", "details": "72 hours"}, "[5]": {"tested_on": "Colo205 tumor", "test": "Colo205 subcutaneous tumor model in nu/nu mice", "details": "15 mg/kg daily i.p."}, "[6]": {"test": "Preliminary tolerability experiments in mice", "details": "30 mg/kg i.p."}},
  "data": [
    {"smiles": "Cc1ccc(C(=O)Nc2cccc(C(F)(F)F)c2)cc1Nc1nc(-c2cccnc2)nc2nn(C)cc12", "values": [
      {"measurement": "growth of HT-29 colorectal carcinoma cells in mice", "setting": "[1]", "result": "reduced significantly the growth of HT-29 colorectal carcinoma cells in mice"},
      {"measurement": "average % Ki67+ cells, control vs treated tumors", "setting": "[1]; n=5", "result": "control (n=5) is significantly higher"},
      {"measurement": "mean % cleaved caspase-3+ tumor area vs control", "setting": "[1]; n=5", "result": "significantly greater"},
      {"measurement": "tumor vasculature (average CD31 fluorescence intensity)", "setting": "[1]; n=5", "result": "no measurable effect on the tumor vasculature"},
      {"measurement": "cell cycle distribution", "setting": "[2]", "result": "Neither compound altered cell cycle distribution"},
      {"measurement": "LC3B accumulation in SW620 cells", "setting": "[3]", "result": "induce LC3B accumulation"},
      {"measurement": "LC3-related autophagy puncta", "setting": "[4]", "result": "increase significantly the average number of LC3-related puncta/cell"},
      {"measurement": "Colo205 tumor growth (tumor measurements and tumor weight)", "setting": "[5]", "result": "reduced significantly Colo205 tumor growth"},
      {"measurement": "body weight", "setting": "[6]", "result": "significant reduction of body weight"}
    ]}
  ]
}
